Laboratory results: ChEMBL document CHEMBL4616702, “Discovery of BMS-986251: A Clinically Viable, Potent, and Selective RORγt Inverse Agonist” (ACS Med Chem Lett, 2020)
The source made the active and inactive calls.

Tests used:
Format in all cases: functional, organism-based
Mus musculus [1] = assay: Suppression of ear thickness in C57BL/6 mouse model of IL-23 induced acanthosis model of psoriasis at 5 to 45 mg/kg, po BID for 10 days measured every other day
Mus musculus [2] = assay: Reduction in IL-17 level in orally dosed IL-2/IL-23-stimulated C57BL/6 mouse whole blood measured after 30 mins by AlphaLISA method
Mus musculus [3] = assay: Protection against imiquimod-induced C57BL/6 mouse model of psoriasis assessed as decrease in skin thickening at 2 to 20 mg/kg, po BID with daily dosing for 7 consecutive days and measured post-last dose

C[C@H]1C[C@H](C(=O)O)CC[C@H]1C(=O)N1CC[C@@]2(S(=O)(=O)c3ccc(F)cc3)c3ccc(C(F)(C(F)(F)F)C(F)(F)F)cc3CC[C@@H]12 [BMS-986251]
active: Activity (Mus musculus [1]) | inhibition (Mus musculus [2]) Dose-dependent effect | Activity (Mus musculus [3])
